Assay results as given in patent US20150258192A1, “COMPOSITIONS AND METHODS FOR PREVENTING OR TREATING CHRONIC LUNG ALLOGRAFT DYSFUNCTION (CLAD) AND IDIOPATHIC PULMONARY FIBROSIS (IPF)” (priority 2014, published 2015).

Chains of the proteins cited; added tags and fusions are not shown. Lines headed by an entry give the natural chain unless they say otherwise; changes in a name come on top.
UniProt Q9H2X6: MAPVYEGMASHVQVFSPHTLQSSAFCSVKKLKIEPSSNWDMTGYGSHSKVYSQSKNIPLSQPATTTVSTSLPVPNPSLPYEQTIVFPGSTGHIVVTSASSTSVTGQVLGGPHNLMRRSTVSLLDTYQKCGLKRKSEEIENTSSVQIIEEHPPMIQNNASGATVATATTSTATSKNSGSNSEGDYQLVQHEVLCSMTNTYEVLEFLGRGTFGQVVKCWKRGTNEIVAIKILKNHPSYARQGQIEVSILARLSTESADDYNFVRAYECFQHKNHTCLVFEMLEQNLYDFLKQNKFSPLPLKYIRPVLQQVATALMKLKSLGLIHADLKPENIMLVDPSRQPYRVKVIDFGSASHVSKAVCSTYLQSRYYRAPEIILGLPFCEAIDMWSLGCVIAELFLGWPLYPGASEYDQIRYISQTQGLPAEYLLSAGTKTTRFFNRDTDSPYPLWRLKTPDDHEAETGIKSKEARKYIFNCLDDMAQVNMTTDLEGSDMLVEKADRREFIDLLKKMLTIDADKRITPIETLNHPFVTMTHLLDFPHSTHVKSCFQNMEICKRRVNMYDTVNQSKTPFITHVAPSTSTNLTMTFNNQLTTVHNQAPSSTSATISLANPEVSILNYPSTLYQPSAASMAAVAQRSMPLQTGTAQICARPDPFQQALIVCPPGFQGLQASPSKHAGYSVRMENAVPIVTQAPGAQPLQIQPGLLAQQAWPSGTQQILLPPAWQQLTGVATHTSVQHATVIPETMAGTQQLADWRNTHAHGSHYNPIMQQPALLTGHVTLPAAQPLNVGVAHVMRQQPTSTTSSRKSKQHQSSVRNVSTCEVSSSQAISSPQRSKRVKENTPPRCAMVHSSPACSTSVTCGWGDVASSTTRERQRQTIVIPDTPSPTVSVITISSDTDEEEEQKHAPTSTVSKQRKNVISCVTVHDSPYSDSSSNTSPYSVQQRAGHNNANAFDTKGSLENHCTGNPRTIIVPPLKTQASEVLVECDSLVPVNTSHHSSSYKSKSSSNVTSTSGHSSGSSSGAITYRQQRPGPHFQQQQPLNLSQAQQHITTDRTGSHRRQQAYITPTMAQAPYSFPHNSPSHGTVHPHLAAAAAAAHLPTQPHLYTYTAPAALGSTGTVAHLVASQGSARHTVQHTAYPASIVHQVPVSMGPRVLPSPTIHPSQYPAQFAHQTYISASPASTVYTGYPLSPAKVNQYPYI
UniProt P53355: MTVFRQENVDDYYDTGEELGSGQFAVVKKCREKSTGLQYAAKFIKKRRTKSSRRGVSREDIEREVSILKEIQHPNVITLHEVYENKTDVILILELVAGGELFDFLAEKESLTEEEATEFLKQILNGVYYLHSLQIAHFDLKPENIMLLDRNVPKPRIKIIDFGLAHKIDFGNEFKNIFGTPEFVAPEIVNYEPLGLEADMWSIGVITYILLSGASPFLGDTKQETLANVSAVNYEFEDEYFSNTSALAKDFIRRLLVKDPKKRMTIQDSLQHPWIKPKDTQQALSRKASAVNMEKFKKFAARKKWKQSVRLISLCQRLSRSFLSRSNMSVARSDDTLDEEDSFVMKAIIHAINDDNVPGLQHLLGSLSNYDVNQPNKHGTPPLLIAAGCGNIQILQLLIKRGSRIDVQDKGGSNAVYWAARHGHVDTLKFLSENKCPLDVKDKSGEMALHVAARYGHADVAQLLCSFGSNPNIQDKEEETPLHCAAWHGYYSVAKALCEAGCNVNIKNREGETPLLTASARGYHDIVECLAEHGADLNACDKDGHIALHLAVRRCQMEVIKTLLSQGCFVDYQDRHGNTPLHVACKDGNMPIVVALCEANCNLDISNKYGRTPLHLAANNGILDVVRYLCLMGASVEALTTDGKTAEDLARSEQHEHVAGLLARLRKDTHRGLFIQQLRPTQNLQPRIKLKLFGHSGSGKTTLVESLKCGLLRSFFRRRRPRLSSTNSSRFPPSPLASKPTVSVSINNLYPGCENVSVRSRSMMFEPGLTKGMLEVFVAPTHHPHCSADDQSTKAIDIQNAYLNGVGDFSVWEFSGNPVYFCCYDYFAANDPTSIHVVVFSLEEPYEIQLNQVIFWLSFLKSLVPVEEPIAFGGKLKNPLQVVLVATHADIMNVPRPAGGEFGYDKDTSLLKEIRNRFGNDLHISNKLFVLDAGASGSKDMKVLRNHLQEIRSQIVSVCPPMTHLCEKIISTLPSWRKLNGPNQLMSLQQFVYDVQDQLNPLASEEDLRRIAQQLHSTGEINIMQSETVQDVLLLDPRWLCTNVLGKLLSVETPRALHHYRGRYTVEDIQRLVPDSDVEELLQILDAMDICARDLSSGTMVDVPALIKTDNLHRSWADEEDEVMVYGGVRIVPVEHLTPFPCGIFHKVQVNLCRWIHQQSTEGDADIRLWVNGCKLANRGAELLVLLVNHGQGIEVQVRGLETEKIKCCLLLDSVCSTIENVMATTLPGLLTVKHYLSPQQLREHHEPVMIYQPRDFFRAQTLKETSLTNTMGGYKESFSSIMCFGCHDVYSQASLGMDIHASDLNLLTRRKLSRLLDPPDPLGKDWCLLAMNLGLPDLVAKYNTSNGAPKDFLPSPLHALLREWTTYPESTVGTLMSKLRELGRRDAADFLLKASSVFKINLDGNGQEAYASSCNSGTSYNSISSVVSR
UniProt O75116: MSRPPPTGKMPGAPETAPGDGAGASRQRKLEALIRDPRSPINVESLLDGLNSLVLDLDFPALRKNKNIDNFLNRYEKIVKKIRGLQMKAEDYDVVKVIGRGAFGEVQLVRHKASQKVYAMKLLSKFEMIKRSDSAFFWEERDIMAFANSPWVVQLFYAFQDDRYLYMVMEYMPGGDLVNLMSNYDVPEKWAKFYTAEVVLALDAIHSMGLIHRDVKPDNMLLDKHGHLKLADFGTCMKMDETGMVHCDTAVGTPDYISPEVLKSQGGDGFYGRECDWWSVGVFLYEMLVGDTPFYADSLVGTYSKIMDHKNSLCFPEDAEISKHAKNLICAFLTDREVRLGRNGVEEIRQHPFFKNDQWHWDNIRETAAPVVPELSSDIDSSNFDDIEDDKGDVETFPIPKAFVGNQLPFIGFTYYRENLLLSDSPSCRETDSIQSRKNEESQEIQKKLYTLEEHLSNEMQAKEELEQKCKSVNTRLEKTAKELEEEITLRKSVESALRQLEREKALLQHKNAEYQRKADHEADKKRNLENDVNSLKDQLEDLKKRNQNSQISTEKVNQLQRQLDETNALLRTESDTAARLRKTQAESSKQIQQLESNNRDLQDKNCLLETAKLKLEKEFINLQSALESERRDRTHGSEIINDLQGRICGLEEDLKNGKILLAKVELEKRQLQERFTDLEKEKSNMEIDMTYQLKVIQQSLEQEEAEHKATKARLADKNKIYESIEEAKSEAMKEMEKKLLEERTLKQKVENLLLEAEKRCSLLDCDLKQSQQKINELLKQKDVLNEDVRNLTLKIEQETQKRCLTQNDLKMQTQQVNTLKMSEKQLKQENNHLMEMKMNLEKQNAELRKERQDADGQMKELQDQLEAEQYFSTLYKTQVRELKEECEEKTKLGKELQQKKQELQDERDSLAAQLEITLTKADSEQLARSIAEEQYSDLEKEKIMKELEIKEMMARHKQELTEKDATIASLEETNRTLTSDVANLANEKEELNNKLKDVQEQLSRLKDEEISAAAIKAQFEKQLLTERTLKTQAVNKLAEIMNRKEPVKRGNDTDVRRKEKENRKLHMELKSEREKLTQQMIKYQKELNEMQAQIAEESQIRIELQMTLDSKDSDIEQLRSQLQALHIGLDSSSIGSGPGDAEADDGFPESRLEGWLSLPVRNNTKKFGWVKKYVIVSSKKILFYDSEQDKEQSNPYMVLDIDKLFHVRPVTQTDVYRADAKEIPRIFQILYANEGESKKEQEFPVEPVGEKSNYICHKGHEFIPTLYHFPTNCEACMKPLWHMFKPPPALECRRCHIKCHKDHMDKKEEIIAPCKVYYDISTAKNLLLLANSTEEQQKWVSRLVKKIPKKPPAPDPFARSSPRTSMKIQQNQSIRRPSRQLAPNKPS
UniProt P51955: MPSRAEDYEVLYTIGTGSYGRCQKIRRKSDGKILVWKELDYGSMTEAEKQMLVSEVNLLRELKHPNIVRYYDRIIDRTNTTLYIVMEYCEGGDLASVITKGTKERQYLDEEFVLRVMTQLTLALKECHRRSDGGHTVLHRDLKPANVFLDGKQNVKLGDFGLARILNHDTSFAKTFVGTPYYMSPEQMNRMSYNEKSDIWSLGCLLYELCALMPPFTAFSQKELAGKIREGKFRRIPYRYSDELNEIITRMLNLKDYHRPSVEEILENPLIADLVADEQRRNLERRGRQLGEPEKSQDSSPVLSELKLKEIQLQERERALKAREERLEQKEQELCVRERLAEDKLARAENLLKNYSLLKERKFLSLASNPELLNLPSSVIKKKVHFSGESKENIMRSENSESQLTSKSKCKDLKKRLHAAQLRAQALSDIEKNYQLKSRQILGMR
UniProt P50613: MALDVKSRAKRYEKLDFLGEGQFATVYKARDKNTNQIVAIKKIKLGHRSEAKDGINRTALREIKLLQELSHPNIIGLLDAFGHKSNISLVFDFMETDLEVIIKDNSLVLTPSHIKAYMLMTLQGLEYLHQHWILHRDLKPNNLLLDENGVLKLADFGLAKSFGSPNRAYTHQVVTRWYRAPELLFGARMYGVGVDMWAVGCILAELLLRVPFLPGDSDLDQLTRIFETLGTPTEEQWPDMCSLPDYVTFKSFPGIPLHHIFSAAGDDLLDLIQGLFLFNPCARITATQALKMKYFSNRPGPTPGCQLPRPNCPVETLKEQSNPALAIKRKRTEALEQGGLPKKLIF
UniProt P06241, whole entry: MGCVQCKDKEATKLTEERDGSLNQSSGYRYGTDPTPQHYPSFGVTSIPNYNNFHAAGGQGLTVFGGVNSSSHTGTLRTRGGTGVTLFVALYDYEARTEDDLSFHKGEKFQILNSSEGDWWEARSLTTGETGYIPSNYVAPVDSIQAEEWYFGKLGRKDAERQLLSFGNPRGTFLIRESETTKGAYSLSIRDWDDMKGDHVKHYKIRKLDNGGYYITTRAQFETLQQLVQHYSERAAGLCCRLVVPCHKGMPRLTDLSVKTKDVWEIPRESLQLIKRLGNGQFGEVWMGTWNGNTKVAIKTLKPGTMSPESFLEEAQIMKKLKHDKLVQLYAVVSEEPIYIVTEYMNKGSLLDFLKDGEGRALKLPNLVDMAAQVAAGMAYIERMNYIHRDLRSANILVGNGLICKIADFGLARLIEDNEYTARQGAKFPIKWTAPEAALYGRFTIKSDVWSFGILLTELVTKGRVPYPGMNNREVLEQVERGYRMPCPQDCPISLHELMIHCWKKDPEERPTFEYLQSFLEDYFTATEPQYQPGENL
UniProt P52564: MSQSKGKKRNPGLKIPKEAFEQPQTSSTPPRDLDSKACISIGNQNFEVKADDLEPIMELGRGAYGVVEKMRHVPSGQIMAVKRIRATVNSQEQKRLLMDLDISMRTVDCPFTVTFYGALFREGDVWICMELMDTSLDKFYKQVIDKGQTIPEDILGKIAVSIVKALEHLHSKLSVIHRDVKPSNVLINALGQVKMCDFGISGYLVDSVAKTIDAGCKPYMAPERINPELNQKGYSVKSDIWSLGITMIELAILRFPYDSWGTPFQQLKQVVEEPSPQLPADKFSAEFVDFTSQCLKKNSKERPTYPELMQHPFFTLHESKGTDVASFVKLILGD

Assays:
Experiment in all cases: Kinase Profiling Assay
Type in all cases: biochemical
Conditions in all cases: peptide 100 μM
Ret(V804M)(h) = Ret(V804M)(h) (Homo sapiens, UniProt P07949, V804M)
How it was run: (§1)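 Each kinase activity was measured in duplicate. Phosphorylation of a positively charged substrate with radiolabeled phosphate from ATP was captured on a negatively charged filter, counted by scintillation and expressed relative to a 100% activity control. MK2 inhibitory peptides were screened for specificity across 266 human kinases.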

HIPK2(h) = target: T1, HIPK2(h) (Homo sapiens, UniProt Q9H2X6)
T1 construct: purchased Millipore
How it was run: as §1

DAPK1(h) = DAPK1(h) (Homo sapiens, UniProt P53355)
How it was run: as §1

MKK7β(h) = target: T2, MKK7β(h) (Homo sapiens, UniProt O14733)
T2 construct: purchased Millipore
T2 sequence (O14733 1-419): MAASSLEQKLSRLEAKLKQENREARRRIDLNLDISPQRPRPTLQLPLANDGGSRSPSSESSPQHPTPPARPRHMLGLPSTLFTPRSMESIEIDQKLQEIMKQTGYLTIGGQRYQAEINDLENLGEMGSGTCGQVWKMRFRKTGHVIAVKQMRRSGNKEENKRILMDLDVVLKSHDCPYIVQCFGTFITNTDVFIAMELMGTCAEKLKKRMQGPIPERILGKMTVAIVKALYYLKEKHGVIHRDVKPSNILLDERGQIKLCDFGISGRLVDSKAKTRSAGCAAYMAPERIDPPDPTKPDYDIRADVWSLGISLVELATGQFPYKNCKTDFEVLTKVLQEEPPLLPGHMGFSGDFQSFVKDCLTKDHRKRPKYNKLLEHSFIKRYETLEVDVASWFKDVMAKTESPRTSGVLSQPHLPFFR
How it was run: as §1

TAO1(h) = target: T3, TAO1(h) (Homo sapiens, UniProt Q7L7X3)
T3 construct: purchased Millipore
T3 sequence (Q7L7X3 1-1001): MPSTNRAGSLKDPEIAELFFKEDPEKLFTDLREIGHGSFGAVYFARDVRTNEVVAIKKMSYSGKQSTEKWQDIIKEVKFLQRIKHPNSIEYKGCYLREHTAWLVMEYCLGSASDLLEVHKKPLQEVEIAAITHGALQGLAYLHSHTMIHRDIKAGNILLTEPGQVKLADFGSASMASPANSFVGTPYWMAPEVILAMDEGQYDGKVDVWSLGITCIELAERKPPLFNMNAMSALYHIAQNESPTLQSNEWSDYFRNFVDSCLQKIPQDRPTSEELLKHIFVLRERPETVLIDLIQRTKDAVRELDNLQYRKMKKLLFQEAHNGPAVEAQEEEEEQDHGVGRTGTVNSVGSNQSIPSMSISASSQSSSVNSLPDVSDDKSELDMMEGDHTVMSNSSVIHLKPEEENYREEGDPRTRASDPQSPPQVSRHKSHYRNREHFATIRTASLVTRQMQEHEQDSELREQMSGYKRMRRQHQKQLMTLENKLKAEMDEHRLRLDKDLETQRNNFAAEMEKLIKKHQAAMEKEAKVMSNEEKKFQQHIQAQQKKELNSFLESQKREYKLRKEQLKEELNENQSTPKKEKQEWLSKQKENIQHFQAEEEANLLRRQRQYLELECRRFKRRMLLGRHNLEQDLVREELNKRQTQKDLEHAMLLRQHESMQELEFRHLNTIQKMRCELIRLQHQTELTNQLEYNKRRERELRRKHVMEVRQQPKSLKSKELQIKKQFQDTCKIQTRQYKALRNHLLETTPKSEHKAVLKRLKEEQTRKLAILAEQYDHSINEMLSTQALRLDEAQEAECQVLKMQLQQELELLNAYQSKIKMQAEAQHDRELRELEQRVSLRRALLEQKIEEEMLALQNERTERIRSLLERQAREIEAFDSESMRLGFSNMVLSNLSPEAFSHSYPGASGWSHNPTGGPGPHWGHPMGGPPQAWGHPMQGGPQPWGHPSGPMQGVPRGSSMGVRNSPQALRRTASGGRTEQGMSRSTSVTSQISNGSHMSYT
How it was run: as §1

Met(Y1248H)(h) = target: T4, Met(Y1248H)(h) (Homo sapiens, UniProt P08581, Y1230H)
T4 construct: purchased Millipore
How it was run: as §1

cKit(D816V)(h) = cKit(D816V)(h) (Homo sapiens, UniProt P10721, D816V)
How it was run: as §1

Pim-3(h) = Pim-3(h) (Homo sapiens, UniProt Q86V86)
How it was run: as §1

Src(1-530)(h) = target: T5, Src(1-530)(h) (Homo sapiens, UniProt P12931)
T5 construct: Src(1-530)(h); purchased Millipore
How it was run: as §1

IRAK1(h) = target: T6, IRAK1(h) (Homo sapiens, UniProt P51617)
T6 construct: purchased Millipore
How it was run: as §1

ROCK-II(h) = ROCK-II(h) (Homo sapiens, UniProt O75116)
How it was run: as §1

mTOR/FKBP12(h) = target: T7, mTOR/FKBP12(h) (Homo sapiens, UniProt P42345)
T7 construct: purchased Millipore
How it was run: as §1

Ret(V804L)(h) = Ret(V804L)(h) (Homo sapiens, UniProt P07949, V804L)
How it was run: as §1

Flt1(h) = Flt1(h) (Homo sapiens, UniProt P17948)
How it was run: as §1

Pyk2(h) = Pyk2(h) (Homo sapiens, UniProt Q14289)
How it was run: as §1

NEK2(h) = target: T8, NEK2(h) (Homo sapiens, UniProt P51955)
T8 construct: purchased Millipore
How it was run: as §1

CDK7/cyclinH/MAT1(h) = CDK7/cyclinH/MAT1(h) (Homo sapiens, UniProt P50613)
How it was run: as §1

Fyn(h) = Fyn(h) (Homo sapiens, UniProt P06241)
How it was run: as §1

MKK6(h) = target: T9, MKK6(h) (Homo sapiens, UniProt P52564)
T9 construct: purchased Millipore
How it was run: as §1

## YARAAARQARAKALNRQLGVA (Mammal) [MMI-0200]
Ret(V804M)(h)
  % activity: 105%
HIPK2(h)
  % activity: 102%
DAPK1(h)
  % activity: 113%
MKK7β(h)
  % activity: 117%
TAO1(h)
  % activity: 105%

## FAKLAARLYRKALARQLGVAA [MMI-0300]
Met(Y1248H)(h)
  % activity: 117%

## CC(C)C[C@H](NC(=O)[C@H](C)NC(=O)[C@H](CCCCN)NC(=O)[C@H](C)NC(=O)[C@H](CCCNC(=N)N)NC(=O)[C@H](C)NC(=O)[C@H](CCC(N)=O)NC(=O)[C@H](CCCNC(=N)N)NC(=O)[C@H](C)NC(=O)[C@H](C)NC(=O)[C@H](C)NC(=O)[C@H](CCCNC(=N)N)NC(=O)[C@H](C)NC(=O)[C@@H](N)Cc1ccc(O)cc1)C(=O)N[C@@H](C)C(=O)N[C@@H](CCCNC(=N)N)C(=O)N[C@@H](CCC(N)=O)C(=O)N[C@@H](CC(C)C)C(=O)NCC(=O)N[C@H](C(=O)N[C@@H](C)C(=O)N[C@@H](C)C(=O)O)C(C)C [MMI-0100]
cKit(D816V)(h)
  % activity: 117%
Pim-3(h)
  % activity: 98%
Src(1-530)(h)
  % activity: 95%
IRAK1(h)
  % activity: 97%
ROCK-II(h)
  % activity: 102%
mTOR/FKBP12(h)
  % activity: 117%
Ret(V804L)(h)
  % activity: 113%
Flt1(h)
  % activity: 109%
Pyk2(h)
  % activity: 113%
NEK2(h)
  % activity: 102%
CDK7/cyclinH/MAT1(h)
  % activity: 89%
Fyn(h)
  % activity: 71%
MKK6(h)
  % activity: 74%
